Measurements reported in patent US7951782B2, “Composition effective to prevent or treat adult disease” (Maruha Nichiro Seafoods, Inc, priority 2005, dated 2011).

The chains behind the UniProt entries cited, without tags or fusion partners.
UniProt P80457, whole entry: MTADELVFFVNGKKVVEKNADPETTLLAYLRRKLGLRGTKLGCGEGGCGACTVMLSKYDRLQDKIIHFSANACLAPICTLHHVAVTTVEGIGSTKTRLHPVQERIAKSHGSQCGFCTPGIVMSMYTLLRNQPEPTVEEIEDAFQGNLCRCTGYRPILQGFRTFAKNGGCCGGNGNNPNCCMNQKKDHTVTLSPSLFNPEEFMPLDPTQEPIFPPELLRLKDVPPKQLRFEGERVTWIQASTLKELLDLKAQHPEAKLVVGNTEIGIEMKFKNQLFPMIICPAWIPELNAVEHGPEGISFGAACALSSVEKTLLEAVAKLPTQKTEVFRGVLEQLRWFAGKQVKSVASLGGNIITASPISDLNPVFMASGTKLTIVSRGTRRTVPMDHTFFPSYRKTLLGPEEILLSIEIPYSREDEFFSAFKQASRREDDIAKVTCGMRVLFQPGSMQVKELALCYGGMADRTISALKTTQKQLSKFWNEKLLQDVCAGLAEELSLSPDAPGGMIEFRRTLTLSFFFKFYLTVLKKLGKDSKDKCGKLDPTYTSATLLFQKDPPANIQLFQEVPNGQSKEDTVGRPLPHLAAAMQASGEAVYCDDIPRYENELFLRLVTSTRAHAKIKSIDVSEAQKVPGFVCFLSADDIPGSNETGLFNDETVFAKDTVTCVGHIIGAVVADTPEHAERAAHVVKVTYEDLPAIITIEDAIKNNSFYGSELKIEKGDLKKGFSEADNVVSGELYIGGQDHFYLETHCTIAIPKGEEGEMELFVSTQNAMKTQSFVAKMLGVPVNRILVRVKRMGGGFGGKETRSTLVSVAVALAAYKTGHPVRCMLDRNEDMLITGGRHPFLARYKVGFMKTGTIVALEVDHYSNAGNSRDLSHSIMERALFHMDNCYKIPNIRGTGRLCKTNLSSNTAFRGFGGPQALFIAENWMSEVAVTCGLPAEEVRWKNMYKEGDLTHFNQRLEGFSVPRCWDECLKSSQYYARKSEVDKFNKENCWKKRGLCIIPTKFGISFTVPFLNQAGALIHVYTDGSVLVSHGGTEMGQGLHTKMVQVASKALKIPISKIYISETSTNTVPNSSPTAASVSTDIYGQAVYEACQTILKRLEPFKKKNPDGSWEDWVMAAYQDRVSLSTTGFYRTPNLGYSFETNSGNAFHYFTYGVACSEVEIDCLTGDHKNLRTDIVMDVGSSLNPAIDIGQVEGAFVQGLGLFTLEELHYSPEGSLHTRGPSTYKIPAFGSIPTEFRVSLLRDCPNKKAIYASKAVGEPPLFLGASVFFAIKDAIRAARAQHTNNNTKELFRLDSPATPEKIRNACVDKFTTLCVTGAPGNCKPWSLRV

Target: T1, xanthine oxidase (XO) of cow's milk (Bos taurus, UniProt P80457)
T1 construct: xanthine oxidase (XO) of cow's milk (from Wako Pure Chemical); purchased Wako Pure Chemical; host or cells: cow's milk (natural source)
Assay: Uric acid synthetase inhibitory activity of peptides that are part of SEQ ID No. 1
Format: biochemical
Conditions: 15 μM xanthine, 50 mM tris-HCl pH 7.4, 37° C., 10 minutes
Protocol: Each of the peptides synthesized was added to 1 ml of a 50 mM tris-HCl buffer (pH 7.4) containing 15 μM xanthine as an enzyme substrate to prepare a reaction system. To the reaction system was added 0.1 unit (containing 100 μl of 25 units/25 ml enzyme solution) of xanthine oxidase (XO) of cow's milk (from Wako Pure Chemical), followed by allowing the system to react at 37° C. for 10 minutes. The amount of uric acid produced from xanthine by the action of xanthine oxidase was evaluated in terms of changes in optical density (OD, at 292 nm), from which the enzyme activity was calculated from formula previously given.

xanthine oxidase activity in system containing the peptide | SMILES
inhibited | NC(=O)C[C@H](NC(=O)[C@@H](N)CC(=O)O)C(=O)N[C@@H](Cc1ccc(O)cc1)C(=O)O [DNY, Asp-Asn-Tyr]
inhibited | CC(C)C[C@H](N)C(=O)N[C@@H](CC(=O)O)C(=O)N[C@@H](CC(N)=O)C(=O)O [LDN, Leu-Asp-Asn]
